# Results from PubChem BioAssay AID493008 (The Scripps Research Institute Molecular Screening Center, 2010).
# The entries are a selection whose mix differs from that of the whole data set. Calls of active or inactive are those of the source.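 How the source made its calls: active means activation above the mean over all tested compounds plus 3 SD (cut at about 30% in these data); inactive means the rest.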
# Molecular target: Troponin I, cardiac muscle (Homo sapiens) + Troponin T, cardiac muscle (Homo sapiens) + Troponin C, slow skeletal and cardiac muscles (Homo sapiens) (UniProt P19429+P45379+P63316)
# Test: calcium sensitizers of cardiac thin filaments – biochemical, IANBD-TnC fluorescence, EC20 calcium, primary screen (AID 493008);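 further: rise in fluorescence read as greater calcium sensitivity of cardiac thin filaments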
# Conditions: IANBD-labeled TnC RTF fluorescence at EC20 calcium; at 7.2 µM; stronger effect = higher value; 0% EC20 calcium, 100% full calcium
row,Compound,activation
1,CS(=O)(=O)c1ccc(Cl)c(NC(=O)COC(=O)C(O)(c2ccccc2)c2ccccc2)c1,inactive: -3.48%
2,O=[As](O)(O)c1cccnc1,inactive: -2.42%
3,COc1cc(C(=O)NCC2(N3CCOCC3)CCCCC2)cc(Cl)c1OC(C)C,inactive: -3.63%
4,O=C(OC1CN2CCC1CC2)c1ccc(Cl)cc1 (stereo unspecified),inactive: -0.88%
5,Cc1cccc(OCC(=O)OC2CN3CCC2CC3)c1 (stereo unspecified),inactive: -0.89%
6,O=[As](O)(c1cccc(O)c1)c1cccc(O)c1,inactive: 2.77%
7,CCCOP(=S)(Nc1nc(N)cc(=O)[nH]1)OCCC,inactive: 7.33%
8,Nc1cccc2c([As](=O)(O)O)cccc12,inactive: 8.07%
9,Cc1ccc(NCCc2c([N+](=O)[O-])cc([N+](=O)[O-])cc2[N+](=O)[O-])cc1,inactive: 9.49%
10,CCOP(=O)(Nc1cccc2ccccc12)OCC,inactive: 4.32%
11,COc1cc(C2NCCC3(OCCO3)C2(C)C)cc(OC)c1OC (stereo unspecified),inactive: 6.24%
12,CS(=O)(=O)c1cc([N+](=O)[O-])c2no[n+]([O-])c2c1,inactive: 2.52%
13,O=P(Nc1nccs1)(Oc1ccccc1)Oc1ccccc1,inactive: -6.77%
14,O=P(Nc1nccs1)(c1ccccc1)c1nc2ccccc2s1 (stereo unspecified),inactive: 0.73%
15,CCOP1(=S)c2c(C)nn(CCC#N)c2N=C(c2ccccc2F)N1C (stereo unspecified),inactive: -5.99%
16,Nc1ccccc1[As](=O)(O)c1ccccc1,inactive: 1.27%
17,O=C(O)COc1ccc([As](=O)(O)O)cc1[N+](=O)[O-],inactive: -7.49%
18,NC(=O)Nc1ccc([As](=O)(O)O)cc1,inactive: 2.73%
19,CN(C(=O)Cc1ccc(Cl)c(Cl)c1)[C@H]1CC[C@@]2(CCCO2)C[C@@H]1N1CCCC1,inactive: 0.88%
20,O=[N+]([O-])c1ccc2c(c1)nnn2O,inactive: -4.82%
21,CN(C)C(=O)c1cc([N+](=O)[O-])cc2c1-c1c(cc([N+](=O)[O-])cc1[N+](=O)[O-])C2=O,inactive: -1.43%
22,CCOP1(=S)c2c(C)nn(CCC#N)c2N=C(c2ccc(F)cc2)N1C (stereo unspecified),inactive: 9.14%
23,CN(C(=O)Cc1ccccc1)[C@@H]1CC[C@]2(CCCO2)C[C@H]1N1CCCC1,inactive: 4.05%
24,N#CCCN(C(=O)COC(=O)C(O)(c1ccccc1)c1ccccc1)c1ccc(F)cc1,inactive: -7.58%
25,CC1CCC(C(C)C)C(OP(=O)(Nc2ccccn2)c2ccccc2)C1 (stereo unspecified),inactive: 0.47%
26,Cc1ccc(C(=O)OC2CN3CCC2CC3)cc1 (stereo unspecified),inactive: -2.28%

row,Compound,activation
1,Cc1nn(-c2ccccc2)c2c1P(=O)(N1CCOCC1)N(C)C(c1ccccc1)=N2 (stereo unspecified),inactive: -3.93%
2,CCCC1OP(=O)(Nc2ccccc2)OCC1CC (stereo unspecified),inactive: -2.07%
3,O=C(/C=C/c1ccccc1)OC1CN2CCC1CC2 (stereo unspecified),inactive: -3.64%
4,CN(C)C1(CNC(=O)c2ccc(S(C)(=O)=O)cc2)CCCCC1,inactive: -1.1%
5,O=P1(Nc2ncccn2)COc2ccccc2OC1,inactive: 6.33%
6,O=[As](O)(c1cccs1)c1cccs1,inactive: -2.89%
7,Cc1ccc(OCC(=O)OC2CN3CCC2CC3)cc1 (stereo unspecified),inactive: -0.66%
8,O=P1(Nc2ccc(Br)cn2)COc2ccccc2OC1,inactive: 3.71%
9,NS(=O)(=O)c1cccc(NC(=O)COC(=O)C(O)(c2ccccc2)c2ccccc2)c1,inactive: 4.49%
10,Nc1cccc([As](=O)(O)c2ccccc2)c1,inactive: -5.93%
11,CCOP(=O)(Nc1ccc(C)cn1)OCC,inactive: 3.61%
12,CCOP(=O)(NC(=NC(C)c1ccccc1)NC(C)c1ccccc1)OCC (stereo unspecified),inactive: -3.18%
13,O=P1(Nc2ccccn2)COc2ccccc2OC1,inactive: 4.57%
14,CCC1=CC2Cc3nc4ccc(Cl)cc4c(N)c3C(C1)C2 (stereo unspecified),inactive: 3.11%
15,CC(C)(C)C(=O)NC(Sc1ncccn1)C(Cl)(Cl)Cl (stereo unspecified),inactive: -2.3%
16,Clc1n[nH]nc1-c1nn[nH][15n]1,inactive: 0.17%
17,COc1ccccc1CNC(=O)COC(=O)C(O)(c1ccccc1)c1ccccc1,inactive: 1.32%
18,CC1(CBr)Cn2c(nc3ccccc3c2=O)S1 (stereo unspecified),inactive: 6.92%
19,CC(C)/C=N\N=C(\N)N[N+](=O)[O-],inactive: 3.67%
20,CN(C(=O)Cc1ccc(Cl)c(Cl)c1)[C@@H]1CCCC[C@H]1N1CCCC1,inactive: -1.99%
21,COP1(=S)c2c(C)nn(CCC#N)c2N=C(c2ccc(F)cc2)N1C (stereo unspecified),inactive: 3.73%
22,O=C(Nc1ccncc1[N+](=O)[O-])c1ccc([N+](=O)[O-])cc1[N+](=O)[O-],inactive: -2.44%
23,O=C(COc1ccccc1)OC1CN2CCC1CC2 (stereo unspecified),inactive: 3.6%
24,CCOC(=O)c1ccc(NC(=O)C(C)(CCl)SC)cc1 (stereo unspecified),inactive: -6.67%
25,O=C(OC1CN2CCC1CC2)c1cccc([N+](=O)[O-])c1 (stereo unspecified),inactive: 1.71%
26,CCC(C)N(CC(C)C)C(=S)SC(NC(C)=O)C(Cl)(Cl)Cl (stereo unspecified),inactive: -1.84%

row,Compound,activation
1,CC1CCNP(=O)(N(CCCl)CCCl)O1 (stereo unspecified),inactive: -3.59%
2,CCOC(=O)Nc1ccc([As](=O)(O)O)c(O)c1,inactive: 3.65%
3,Cc1cc(SC(NC(=O)c2ccccc2)C(Cl)(Cl)Cl)nc(C(C)C)n1 (stereo unspecified),inactive: 10.6%
4,CCCCOc1ccc(C(=O)NCC2(N3CCCCC3)CCCCC2)cc1OC,inactive: -2.5%
5,CCOC(=O)Nc1cccc([As](=O)(O)O)c1,inactive: -9.27%
6,O=[N+]([O-])c1ccc(Nc2ccc(Oc3ccc([N+](=O)[O-])cc3[N+](=O)[O-])cc2)c([N+](=O)[O-])c1,inactive: 2.01%
7,O=P(Nc1ccccn1)(c1cccc2ccccc12)c1cccc2ccccc12,inactive: 6.05%
8,Cc1cc(SC(NC=O)C(Cl)(Cl)Cl)ncn1 (stereo unspecified),inactive: 1.36%
9,O=[N+]([O-])c1ccc(-c2cc([N+](=O)[O-])c(O)c([N+](=O)[O-])c2)cc1,inactive: -3.82%
10,COc1cc(C(=O)NCC2(N3CCOCC3)CCCCC2)ccc1OCC(C)C,inactive: -2.67%
11,C[As](=O)(O)c1cccc(C(=O)O)c1,inactive: -6.01%
12,O=[As](O)(c1ccc(O)cc1)c1ccccc1O,inactive: -3.78%
13,Cc1ccc2nc3c(c(C)c2c1)CC(C(Cl)Cl)S3 (stereo unspecified),inactive: 1.29%
14,Cc1ccc(OP(=O)(Nc2ccc([N+](=O)[O-])cn2)Oc2ccc(C)cc2)cc1,inactive: -5.12%
15,COC(=O)C1(C)COP(=O)(N2CCCCCC2)OC1 (stereo unspecified),inactive: 4.12%
16,CC(C)c1ccc(OP(=O)(Nc2ccccn2)Oc2ccccc2F)cc1 (stereo unspecified),inactive: 5.13%
17,ClCCSc1nnc(-c2cccnc2)o1,inactive: 0.3%
18,O=[N+]([O-])c1cc([N+](=O)[O-])c(-c2ccn[nH]2)s1,inactive: -6.46%
19,O=C(OC1CN2CCC1CC2)c1cccc2[nH]cnc12 (stereo unspecified),inactive: 3.09%
20,CCN(CC)C(=S)SC(NC=O)C(Cl)(Cl)Cl (stereo unspecified),inactive: 6.53%
21,Cc1cc(=O)[nH]c(N[N+](=O)[O-])n1,inactive: -3.83%
22,O=C(OC1CN2CCC1CC2)C12CC3CC(CC(C3)C1)C2 (stereo unspecified),inactive: 4.29%
23,Cc1c2c(nc3ccccc13)SC(C(Cl)Cl)C2 (stereo unspecified),inactive: -4.56%
24,COc1cc(I)ccc1[As](=O)(O)O,inactive: -0.73%
25,COc1ccc2nc(NP(=O)(c3ccccc3)c3ccccc3)sc2c1,inactive: 5.49%
26,O=P1(N(CCCl)CCCl)Nc2ccccc2N1,inactive: 0.18%

row,Compound,activation
1,O=P1(N(CCCl)CCCl)OCCCN1CCCl (stereo unspecified),inactive: -4.73%
2,COc1ccc(N/C(=N/P(=O)(N2CCOCC2)N2CCOCC2)N2CCOCC2)cc1,inactive: -2.38%
3,O=[N+]([O-])c1cc(Oc2ccc([N+](=O)[O-])cc2C(F)(F)F)cc([N+](=O)[O-])c1,inactive: -1%
4,NC(=O)c1cc([N+](=O)[O-])cc([N+](=O)[O-])c1N,inactive: -1.6%
5,Cc1ccc(N/C(=N/P(=O)(N2CCOCC2)N2CCOCC2)N2CCOCC2)cc1,inactive: 6.16%
6,CN(C(=O)Cc1ccc(Cl)c(Cl)c1)[C@H]1CCCC[C@H]1N1CCCC1,inactive: 2.72%
7,COc1ccccc1OP(=O)(Nc1ccc(C)cn1)Oc1ccccc1OC,inactive: -2.61%
8,CN1CCCC(OC(=O)C(c2ccccc2)c2ccccc2)C1 (stereo unspecified),inactive: 6.05%
9,Clc1ccc(Cl)c(NC2=NCC(CBr)S2)c1 (stereo unspecified),inactive: 2.34%
10,Nc1cc(N)c2nonc2c1[N+](=O)[O-],inactive: -3.54%
11,CC(C)CC(=O)NC(Sc1ccc(Cl)cc1)C(Cl)(Cl)Cl (stereo unspecified),inactive: -3.86%
12,O=C(NC(Sc1ccncn1)C(Cl)(Cl)Cl)c1ccccc1 (stereo unspecified),inactive: 8.54%
13,Oc1ccccc1CNc1ccccn1,inactive: 3.08%
14,CCCC1OP(N)(=O)OCC1CC (stereo unspecified),inactive: -3.35%
15,CC(=O)Nc1ccc([As](=O)(O)O)cc1,inactive: 0.32%
16,O=C(O)c1ccccc1[As](=O)(O)O,inactive: 2.4%
17,O=P(Nc1nc2ccc(Cl)cc2s1)(c1ccccc1)c1ccccc1,inactive: 1.56%
18,Cc1ccc(NP(=O)(Oc2ccccc2F)Oc2ccccc2F)nc1,inactive: 7.94%
19,CN(C(=O)Cc1ccc(Cl)c(Cl)c1)[C@H]1CCCC[C@@H]1N1CCCC1,inactive: 2.83%
20,Cc1cc(SC(NC(=O)c2ccc(F)cc2)C(Cl)(Cl)Cl)ncn1 (stereo unspecified),inactive: -3.32%
21,CCOP(=O)(Nc1ccccc1)OCC,inactive: -5.09%
22,CCN(N=Nc1nonc1N)c1nonc1N,inactive: -2.88%
23,Nc1cccc2ccc([As](=O)(O)O)cc12,inactive: -0.78%
